Yeast mating assay 1: variants of the scFv Ab-14

The measurements come from Engelhart et al. 2022 (doi:10.1038/s41597-022-01779-4) through the FLAb antibody collection.

Antigen: PDVDLGDISGINAS, a 14-residue peptide of the SARS-CoV-2 spike HR2 region.

Each scFv is VH, the linker GGGGSGGGGSGGGGS, VL, as in the parent Ab-14, and differs from it in the CDRs of the light chain only.
VH: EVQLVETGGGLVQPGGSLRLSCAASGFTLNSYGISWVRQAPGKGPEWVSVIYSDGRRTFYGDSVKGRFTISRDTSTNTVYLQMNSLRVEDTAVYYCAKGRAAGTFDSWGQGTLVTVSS
VL: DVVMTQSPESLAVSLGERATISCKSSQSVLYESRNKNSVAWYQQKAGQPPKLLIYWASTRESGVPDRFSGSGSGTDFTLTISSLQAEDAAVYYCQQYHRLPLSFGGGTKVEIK

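The parent was found by panning a naive human phage display library on the peptide. In library AAYL50, one, two or three CDR residues were substituted; doubles and triples were drawn at random. In AlphaSeq, yeast of one mating type display the scFv and yeast of the other type display the target. After mating in shaken culture at 30 °C for 16 h, diploids were selected and their barcode pairs sequenced. A regression on co-assayed BCL2-family reference pairs converts the normalised counts of each replicate to an apparent Kd. Each pool was mated in three replicate cultures.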

Changes read parent residue, position, new residue, counted from the first residue of the VL shown. All variants listed here change S33 of the VL, counted from its first residue. Values are log10 of the apparent Kd in nM; lower means stronger binding. "ND" means that the variant was in the library but no mating with the target was seen in that replicate; the authors take this as a sign of poor binding, and no number exists. Parent in this assay: reference entry 0.65, copy in this library 1.68. Empty control strains, which show no peptide, gave a signal in 18% of pairings with library AAYL50; the median was 4.19 and 95% of these signals were weaker than 2.99. No background was subtracted. The control count says in how many pairings with the empty strains this scFv gave a signal.

With S33K+N35E+N37R the result was ND, ND, 4.26 (controls 3 of 9). The variant E32F+S33H showed ND, ND, ND (controls 0 of 9). With S33K+Q95V the result was ND, ND, ND (controls 0 of 9). With S25R+S33P+K36D the result was 1.00, 1.07, 1.07 (controls 1 of 9). For Q27E+S33A+S38P, the assay gave 0.58, 0.75, 0.76 (controls 1 of 9). The variant S26I+S33A+V39L gave 3.16, 2.65, 2.65 (controls 1 of 9). The variant S33R+S38A+Q96L showed 3.00, 2.54, 3.72 (controls 1 of 9). For S26Q+S33Y+S62Q, the assay gave ND, ND, 4.21 (controls 1 of 9).

The variant Q27V+S33P showed 0.74, 0.82, 0.95 (controls 1 of 9). The variant S33L+A57P+Q95F gave 3.82, 4.16, 4.48 (controls 6 of 9). With S33M+R34T+E61K the result was 1.03, 0.96, 1.14 (controls 1 of 9). The variant K24H+S33V+T59Q gave ND, ND, ND (controls 0 of 9). The variant S33A+E61S+H98R showed 2.81, 2.28, 2.40 (controls 2 of 9). For S28L+S33D+T59H, the assay gave 1.56, 2.87, 1.52 (controls 1 of 9). For Q27I+S33A+Q95L, the assay gave 1.28, 1.34, 2.11 (controls 0 of 9). The variant Q27L+S33V+S38H showed ND, 2.52, ND (controls 0 of 9).

The variant S33H+N37G+W56T showed ND, ND, ND (controls 0 of 9). The variant S33Y+S62C gave 1.96, 1.87, 2.04 (controls 4 of 9). For S33L, the assay gave 3.79, 2.12, 2.31 (controls 2 of 9). The variant S33R+H98K+L100M gave ND, 4.27, 4.42 (controls 2 of 9). The variant S33W+E61R+S103L gave ND, ND, ND (controls 0 of 9). The variant Q27W+S33N+N37Y gave 2.11, 2.07, 1.98 (controls 4 of 9). For S33W+S58R+P101A, the assay gave 2.91, 2.51, 3.38 (controls 1 of 9). With S33P+S38I+S58Q the result was ND, 4.78, ND (controls 1 of 9).

The variant S26H+V29S+S33C gave 3.31, 2.67, 3.43 (controls 3 of 9). With Y31M+S33A+P101D the result was ND, ND, ND (controls 0 of 9). The variant S33L+S58C+P101V showed ND, ND, ND (controls 0 of 9). For S33A+E61G+Q96H, the assay gave 1.98, 2.09, 2.06 (controls 4 of 9). For S28K+S33Q+A57L, the assay gave ND, 3.21, ND (controls 0 of 9). The variant V29W+S33Y+V39Y gave 5.10, 5.32, 5.56 (controls 6 of 9). For V29N+S33D+S62W, the assay gave ND, ND, ND (controls 0 of 9). The variant S26L+S33K+Q96E gave 2.20, 2.90, 2.03 (controls 2 of 9).

With S33V+W56K+Y97E the result was 3.48, 2.75, 3.53 (controls 1 of 9). The variant S26T+S28E+S33R showed ND, ND, ND (controls 2 of 9). The variant S33T+Q95H+R99Y gave ND, 4.18, ND (controls 1 of 9). With S33C+L100T+L102K the result was ND, 4.28, ND (controls 1 of 9). The variant S25F+S33H+R60W gave ND, ND, 4.34 (controls 0 of 9). The variant S33M+E61D showed 1.27, 1.24, 1.42 (controls 2 of 9). The variant S33M+R60P+Y97C showed 5.10, 4.23, 6.27 (controls 4 of 9).

Picked from the list: the 4 lowest averages where every replicate gave a value.

| changes | log10 Kd, replicates | control signals |
|---|---|---|
| Q27E+S33A+S38P | 0.58, 0.75, 0.76 | 1/9 |
| Q27V+S33P | 0.74, 0.82, 0.95 | 1/9 |
| S33M+R34T+E61K | 1.03, 0.96, 1.14 | 1/9 |
| S25R+S33P+K36D | 1.00, 1.07, 1.07 | 1/9 |